Test results taken from patent US20240385200A1, “COMPOSITIONS AND METHODS OF DETERMINING PH AND POTASSIUM CONCENTRATION IN SAMPLES” (The University of Chicago, priority 2023, published 2024).

Sequences of proteins named here, by UniProt entry; tags and fusion partners are left off. A change or cut given only in a name is not applied to a line headed by its entry.
UniProt Q12809: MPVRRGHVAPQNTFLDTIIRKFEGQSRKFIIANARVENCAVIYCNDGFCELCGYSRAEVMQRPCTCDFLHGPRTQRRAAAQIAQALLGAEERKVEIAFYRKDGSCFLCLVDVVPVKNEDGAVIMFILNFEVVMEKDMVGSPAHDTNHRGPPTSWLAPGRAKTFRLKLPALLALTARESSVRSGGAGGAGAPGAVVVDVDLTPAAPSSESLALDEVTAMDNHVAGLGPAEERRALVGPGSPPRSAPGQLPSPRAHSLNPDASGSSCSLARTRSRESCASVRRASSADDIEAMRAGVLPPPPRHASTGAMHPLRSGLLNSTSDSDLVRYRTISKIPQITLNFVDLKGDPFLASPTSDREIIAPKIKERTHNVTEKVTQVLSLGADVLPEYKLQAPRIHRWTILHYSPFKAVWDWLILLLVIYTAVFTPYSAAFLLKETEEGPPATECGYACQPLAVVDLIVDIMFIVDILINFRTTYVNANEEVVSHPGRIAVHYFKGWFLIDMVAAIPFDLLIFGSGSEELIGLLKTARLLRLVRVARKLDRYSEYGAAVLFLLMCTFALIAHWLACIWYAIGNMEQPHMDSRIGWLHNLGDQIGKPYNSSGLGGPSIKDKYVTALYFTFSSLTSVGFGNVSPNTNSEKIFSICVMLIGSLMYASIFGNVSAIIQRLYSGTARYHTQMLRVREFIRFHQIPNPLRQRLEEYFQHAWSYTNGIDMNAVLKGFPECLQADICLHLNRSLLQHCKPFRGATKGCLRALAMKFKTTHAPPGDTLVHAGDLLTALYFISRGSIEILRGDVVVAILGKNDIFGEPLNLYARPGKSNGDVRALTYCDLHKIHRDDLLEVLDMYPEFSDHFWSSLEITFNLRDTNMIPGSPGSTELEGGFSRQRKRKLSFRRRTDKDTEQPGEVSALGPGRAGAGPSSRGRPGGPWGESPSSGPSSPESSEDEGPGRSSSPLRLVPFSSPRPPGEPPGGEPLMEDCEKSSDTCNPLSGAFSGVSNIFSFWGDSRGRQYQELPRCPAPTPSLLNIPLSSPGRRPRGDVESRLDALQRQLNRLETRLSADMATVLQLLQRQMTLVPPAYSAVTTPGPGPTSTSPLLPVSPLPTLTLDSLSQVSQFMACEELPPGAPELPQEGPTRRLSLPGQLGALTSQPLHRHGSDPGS

Assays:
Kv11.1 channels = Kv11.1 channels (Homo sapiens, UniProt Q12809); experiment: Lumenal [K+]RE measured with pHlicKer^RE in cells expressing WT Kv11.1 after blocker treatment; details: WT Kv11.1 cells; TEA 10 mM or cisapride 10 μM, 10 min; untreated ~78 mM
Method: EE and TGN pH and [K^+] measurements were carried out using pHlicKer^EE/TGN in HEK 293T cells transfected with hMSR1 and scFv-furin respectively. For EEs, HEK 293T cells were pulsed with 250 nM pHlicKer^EE for 10 min and chased for 10 min. For TGN, HEK 293T cells were pulsed with 250 nM pHlicKer^TGN for 90 min and chased for 90 min. Cells were washed with 1×PBS three times and then imaged. For recycling endosomes, HEK 293T cells were pulsed with 250 nM pHlicKer^RE for 15 min and chased for 30 min. Cells were washed with 1×PBS three times and then imaged using a widefield microscope.
Calculating pH-corrected [K^+] in early endosomes, trans-Golgi network, and recycling endosomes. To correct for pH and obtain K^+ values, the Kd of pHlicKer in single endosomes was calculated based on the Kd calibration plot versus pH. The pH of the organelle was measured from the D/A values calibrated across pH 5.5-7.0. Donor (D) and acceptor (A) images were background subtracted by drawing a region of interest outside the cells. The D image was duplicated, and a threshold was set to create a binary mask. Background-subtracted D and A images were then multiplied with the binary mask to get processed D and A images.

[1] = system: HEK 293T cells lacking Kv11.1 channels (UT cells); details: TEA treatment

Question: What does the source list for `CC[N+](CC)(CC)CC.[Cl-]` [TEA, tetraethyl ammonium chloride]?
Answer: [K+]RE (Kv11.1 channels): ~37 mM; change of [K+]RE [1]: did not change
